Results as given in US12624042B2, “Compound for targeted degradation of BTK and anti-tumour use thereof” (SHANGHAI MEIZER PHARMACEUTICALS CO., LTD., priority 2020, dated 2026).

Protein sequences, listed by entry. Tags and fused reporters are not part of them. Lines headed by an entry give the natural chain unless they say otherwise; changes in a name come on top.
UniProt Q06187, whole entry: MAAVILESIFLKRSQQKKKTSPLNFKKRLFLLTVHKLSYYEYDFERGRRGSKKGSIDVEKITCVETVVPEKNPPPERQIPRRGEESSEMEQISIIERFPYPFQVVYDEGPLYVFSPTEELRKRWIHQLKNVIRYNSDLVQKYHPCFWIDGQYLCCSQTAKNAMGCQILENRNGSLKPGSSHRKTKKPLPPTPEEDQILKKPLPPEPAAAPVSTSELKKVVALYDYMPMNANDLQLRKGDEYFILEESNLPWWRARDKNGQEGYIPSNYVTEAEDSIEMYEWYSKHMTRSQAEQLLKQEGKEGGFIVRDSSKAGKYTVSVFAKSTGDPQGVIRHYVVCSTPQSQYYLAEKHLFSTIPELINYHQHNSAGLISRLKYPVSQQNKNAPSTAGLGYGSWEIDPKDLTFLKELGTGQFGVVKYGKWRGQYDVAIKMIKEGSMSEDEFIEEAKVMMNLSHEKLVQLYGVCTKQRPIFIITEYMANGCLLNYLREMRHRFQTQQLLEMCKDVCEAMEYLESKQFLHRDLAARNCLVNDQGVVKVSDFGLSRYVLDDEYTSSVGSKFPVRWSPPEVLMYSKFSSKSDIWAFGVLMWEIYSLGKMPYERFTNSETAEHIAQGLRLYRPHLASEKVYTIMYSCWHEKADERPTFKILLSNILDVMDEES
UniProt Q06187, whole entry C481S: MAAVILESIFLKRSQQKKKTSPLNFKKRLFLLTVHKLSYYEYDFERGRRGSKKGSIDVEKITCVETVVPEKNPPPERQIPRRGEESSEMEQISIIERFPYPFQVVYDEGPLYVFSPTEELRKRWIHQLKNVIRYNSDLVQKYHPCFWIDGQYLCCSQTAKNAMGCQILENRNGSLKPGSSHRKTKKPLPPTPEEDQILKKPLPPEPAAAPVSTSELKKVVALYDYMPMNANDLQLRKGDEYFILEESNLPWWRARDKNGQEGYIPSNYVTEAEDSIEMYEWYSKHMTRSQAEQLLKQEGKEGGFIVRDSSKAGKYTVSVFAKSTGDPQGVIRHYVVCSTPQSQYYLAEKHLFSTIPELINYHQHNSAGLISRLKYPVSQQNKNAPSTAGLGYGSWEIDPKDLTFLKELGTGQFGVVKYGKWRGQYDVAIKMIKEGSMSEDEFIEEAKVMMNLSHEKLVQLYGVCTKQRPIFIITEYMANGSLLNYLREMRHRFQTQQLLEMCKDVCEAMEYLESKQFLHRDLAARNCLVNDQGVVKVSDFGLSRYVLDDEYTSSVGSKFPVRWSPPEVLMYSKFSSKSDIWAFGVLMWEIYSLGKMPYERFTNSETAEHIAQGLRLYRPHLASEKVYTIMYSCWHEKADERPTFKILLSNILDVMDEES

What was measured:
BTK protein = BTK protein (Homo sapiens, UniProt Q06187); assay: Western blot assay for degradation of BTK protein in Jeko-1 cells; details: read-out: Degradation of BTK activity DC50, 24 hours of drug treatment, GAPDH internal reference
Procedure: (§1) The Jeko-1 cell line was cultured in RPMI-1640 medium containing 20% fetal bovine serum in an incubator at 37° C., 5% CO2, and saturated humidity. After the cells grew to the logarithmic growth phase, 5×10^6 cells per well were seeded in a 6-well culture plate, and a DMSO control group and a compound test group were set.
(§2) After 24 hours of drug treatment, the cells were collected, added pre-cooled cell lysate, and lysed on ice for 45 min. After the cells were completely lysed, they were centrifuged, and the supernatant was taken and stored in an ice bath. The protein concentration was determined by Bradford protein concentration assay kit (detergent compatible type), and protein samples were prepared. After the proteins were separated by SDS-PAGE gel electrophoresis, they were transferred to PVDF membranes by wet method and blocked with 5% BSA solution at room temperature for 1 h. Diluted rabbit anti-human BTK and GAPDH were added according to the experimental requirements, and incubated overnight at 4° C. After washing the membrane with TBST, horseradish peroxidase-labeled goat anti-rabbit IgG secondary antibody dilution was added and incubated at room temperature for 1 h. After washing the membrane with TBST, the ECL luminescent solution was added in the gel imager for development and imaging. […]

BTK-C481S mutant protein = BTK-C481S mutant protein (Homo sapiens, UniProt Q06187, C481S); assay: Western blot assay for degradation of BTK-C481S mutant protein in TMD8 (BTK-C481S) cells; details: read-out: Degradation BTK-C481S activity DC50, 24 hours of drug treatment, GAPDH internal reference
Procedure: as §1, with “TMD8 (BTK-C481S) mutant” for “Jeko-1”
as §2

Caco-2 cells = assay: Caco-2 membrane permeability and efflux test; details: for Papp Sample-01 / Papp Sample-02 / Papp Mean: Caco-2 monolayer, 37° C., 90 minutes; for Papp Mean: mean of two samples
Procedure: • 1) Caco-2 cells in the logarithmic growth phase were taken, digested and centrifuged and the cell concentration was adjusted to 4×10^5 cells/mL with MEM complete medium. • 2) 0.5 mL of cell suspension was added to the apical side (AP side) and 1.5 mL MEM cell complete medium was added to the basal side (BL side) of the Transwell plate, respectively. • 3) Culture in a cell constant temperature incubator, change the culture medium every two days, and change the medium every day after one week of culture. • 4) After about 21 days, the resistance value of the formed continuous monolayer film is greater than 100 Ω·cm^2, and the transport experiment is carried out within 3-5 days. • 5) The test compound solution was added to the AP side as the donor solution (Donor), and 1.5 mL of the receiver solution (Receiver) was added to the basal side (BL side). After the culture plate was placed in an incubator at 37° C. for 90 minutes, the AP side was separated from the BL side to terminate the reaction. • 6) Donor or Receiver samples were diluted with 0.4% DMSO in HBSS, and then mixed with acetonitrile. The LC conditions were as follows: mobile phase A: H2O—0.025% FA-1 mM NH4OAC, B: MeOH-0.025% FA-1 mM NH4OAC. Column: ACQUITY UPLC BEH_C18 ([…], 1.7 μm). Flow rate 0.60 mL/min. Gradient: 0.2 min 2% B, 0.6 min 98% B, 1.3 min 98% B, 1.31 min 2% B, 1.8 min stop. • 7) Calculation formula: Papp=(VA/(area×time))×([drug]receiver/([drug]donor)×dilution factor)
where VA is the volume in the receiving chamber, area is the surface area of the membrane, and time is the total transport time in seconds.
Drug molecules cross the single cell layer or via the cell gap from the apical side (AP side) to the basolateral side (BL side) of the Caco-2 monolayer are A to B, and vice versa are B to A. The efflux ratio: Papp(B−A)/Papp(A−B).

DC50 (BTK protein): 12.3 nM
DC50 (BTK-C481S mutant protein): 17 nM
Papp Sample-01 (Caco-2 cells; A-B): 3.18 10^−6 cm · s^−1
Papp Sample-02 (Caco-2 cells; A-B): 3.46 10^−6 cm · s^−1
Papp Mean (Caco-2 cells; A-B): 3.32 10^−6 cm · s^−1
Papp Sample-01 (Caco-2 cells; B-A): 25.07 10^−6 cm · s^−1
Papp Sample-02 (Caco-2 cells; B-A): 33.04 10^−6 cm · s^−1
Papp Mean (Caco-2 cells; B-A): 29.05 10^−6 cm · s^−1
Papp(B-A)/Papp(A-B) (Caco-2 cells; efflux ratio, Caco-2): 8.75
SMILES: Nc1ncnc2c1c(-c1ccc(Oc3ccccc3)cc1)nn2C1CCN(CCOCCOCCOc2ccc3c(c2)CN(C2CCC(=O)NC2=O)C3=O)CC1 (stereo not drawn)
